Reference: publication PMC10722540, “Red Wine Inspired Chemistry: Hemisynthesis of Procyanidin Analogs and Determination of Their Protein Precipitation Capacity, Octanol–Water Partition, and Stability in Phosphate-Buffered Saline” (Journal of Agricultural and Food Chemistry, 2023)

Assay: Octanol–water partition, shake-flask method
Type: physicochemical
Settings: 200 μM, n-octanol/water, 2 h mixing; SE in parentheses
Experimental: The shake-flask method was done using 2 mL Eppendorf tubes and three replicates. […] After mixing, aliquots of 500 μL were transferred to new Eppendorf tubes, and 500 μL of n-octanol was added that had been saturated with water. The solvent systems were mixed in a vortex mixer for 2 h, and then both the water and the n-octanol layers as well as the initial water solution were analyzed by UPLC–DAD using the shorter phenyl column (section 2.4). The chromatograms were integrated using TargetLynx software (version 4.2), and the octanol–water partition coefficient, log P, was calculated as the log10 of the ratio of area in n-octanol phase to the area in water phase. Recovery % was calculated by summing the areas in both phases and dividing the summation with the area measured from the initial water phase.

Which results are given for “epicatechin [Compound 16, reference compound]”?
KOW: 1.44 (0.01); log P (log10KOW): 0.16 (0.00)
